Source: patent US20230302142A1, “Cytotoxic Agents” (priority 2020, published 2023)

Tested on: HER2++ CAPAN-1 (pancreatic cancer) tumour
Experiment: In vivo efficacy study, Capan-1 tumour
Conditions: single dose of 2 mg/kg (day 1), male NOD SCID mice
Method: Capan-1 cells (1×10^7 1:1 with Matrigel) were implanted onto the flank of male NOD SCID mice using a 23-gauge needle. Once tumours reached approximately 150 mm^3 (or slightly larger) and when tumours were solid to the touch, the mice were randomly assigned to the relevant treatment groups. Six mice were treated per cohort, and treatments were only administered on a single dose basis.

Question: For Trastuzumab-37, which “tumour volume with time” value is on record?
Answer: The value was “reduction in tumour volume with time compared to the control”.
